Assay [1] has as its target rat orexin 1 receptor (Rattus norvegicus, UniProt P56718). Nature of the assay: Rat orexin 1 receptor radioligand binding (competitive). To be noted: HEK293 cells stably expressing rat orexin 1 receptor; 4 nM radioligand; averages of 2-20 runs; read-out: rOX1 Ki. How it is done: (§1) The in vitro affinity of the compounds of the invention for the rat/human orexin 1 and human orexin 2 receptors was determined by competitive radioligand binding using [^3H](1-(5-(2-fluoro-phenyl)-2-methyl-thiazol-4-yl)-1-((S)-2-(5-phenyl-(1,3,4)oxadiazol-2-ylmethyl)-pyrrolidin-1-yl)-methanone) (Langmead et al., 2004) and [^3H]EMPA (n-ethyl-2[96-methoxy-pyridin-3-yl)-(toluene-2-sulfonyl)-amino]-N-pyridin-3-ylmethyl acetamide), respectively (Langmead et al., 2004, British Journal of Pharmacology 141:340-346; Malherbe et al., 2004, British Journal of Pharmacology 156:1326-41).
(§2) Data are analyzed using pc-Sandy macro and graphed on Graphpad Prism 5. For analysis, each concentration point is averaged from triplicate values and the averaged values are plotted on Graphpad Prism. The IC50 was determined by applying the following equation (GraphPad Prism 5.0, San Diego) for one site competition where X=log (concentration) and Y=specific binding. Top denotes the total [^3H]— (1-(5-(2-fluoro-phenyl)-2-methyl-thiazol-4-yl)-1-((S)-2-(5-phenyl-(1,3,4)oxadiazol-2-ylmethyl)-pyrrolidin-1-yl)-methanone) binding, bottom denotes the nonspecific [^3H]— (1-(5-(2-fluoro-phenyl)-2-methyl-thiazol-4-yl)-1-((S)-2-(5-phenyl-(1,3,4)oxadiazol-2-ylmethyl)-pyrrolidin-1-yl)-methanone) binding. Graphpad Prism calculates Ki value from IC50 and the pre-determined Kd values for [^3H]— (1-(5-(2-fluoro-phenyl)-2-methyl-thiazol-4-yl)-1-((S)-2-(5-phenyl-(1,3,4)oxadiazol-2-ylmethyl)-pyrrolidin-1-yl)-methanone) and [^3H]-EMPA. The Ki for each compound is then uploaded into 3DX. Each run comprises individual compounds in triplicate. The data in Table 1 and Table 2 represent averages from between 2-20 runs
(§3) Rat and Human Orexin 1 Receptor Radioligand Binding Studies
(§4) Human Embryonic Kidney 293 cells (HEK293) stably expressing rat orexin 1 receptor (Genebank accession number NM_001525) or Chinese ovary cells (CHO) stably expressing human orexin 1 receptor (Genebank accession number […]) were grown to confluency in DMEM (Hyclone, cat # SH30022), 10% FBS, 1× Pen/Strep, 1× sodium pyruvate, 10 mM HEPES, 600 μg/mL G418 and DMEM/F12 (Gibco, Cat #11039), 10% FBS, 1× Pen/Strep, 600 μg/mL G418 media, respectively on 150 cm^2 tissue culture plates, washed with 5 mM EDTA in PBS (HyClone Dulbecco's Phosphate Buffered Saline 1× with Calcium and Magnesium, Cat # SH30264.01, hereafter referred to simply as PBS) and scraped into 50 ml tubes. After centrifugation (2K×G, 5 min at 4° C.), the supernatant was aspirated and the pellets frozen and stored at −80° C. Cells were resuspended in PBS in the presence of 1 tablet of protease inhibitor cocktail (Roche, Cat. #11836145001) per 50 mL. […] Competition binding experiments in 96 well polypropylene plates were performed using [^3H]— (1-(5-(2-fluoro-phenyl)-2-methyl-thiazol-4-yl)-1-((S)-2-(5-phenyl-(1,3,4)oxadiazol-2-ylmethyl)-pyrrolidin-1-yl)-methanone) (Moraveck Corporation, specific activity=35.3 Ci/mmol), diluted to a 10 nM concentration in PBS (4 nM final). Compounds were solubilized in 100% DMSO (Acros Organics, Cat. #61042-1000) and tested over a range of 7 concentrations (from 0.1 nM to 10 μM). The final concentration of DMSO in the reactions is equal to or less than 0.1%. Total and nonspecific binding was determined in the absence and presence of 10 μM almorexant. The total volume of each reaction is 200 μL (20 μL of diluted compounds, 80 μL of [^3H]— (1-(5-(2-fluoro-phenyl)-2-methyl-thiazol-4-yl)-1-((S)-2-(5-phenyl-(1,3,4)oxadiazol-2-ylmethyl)-pyrrolidin-1-yl)-methanone) diluted in PBS and 100 μL of the cell suspension). Reactions were run for 60 min at room temperature and terminated by filtration through GF/C filter plates (PerkinElmer, Cat. #6005174) presoaked in 0.3% polyethylenimine using the cell harvester (PerkinElmer Filtermate). The plates were washed 3 times by aspirating 30 ml PBS through the plates. Plates were dried in 55° C. oven for 60 min, scintillation fluid was added, and the radioactivity was counted on a Topcount (Packard). […]

By UniProt entry, the sequences of proteins in these tests, tags left out.
UniProt O43613, whole entry: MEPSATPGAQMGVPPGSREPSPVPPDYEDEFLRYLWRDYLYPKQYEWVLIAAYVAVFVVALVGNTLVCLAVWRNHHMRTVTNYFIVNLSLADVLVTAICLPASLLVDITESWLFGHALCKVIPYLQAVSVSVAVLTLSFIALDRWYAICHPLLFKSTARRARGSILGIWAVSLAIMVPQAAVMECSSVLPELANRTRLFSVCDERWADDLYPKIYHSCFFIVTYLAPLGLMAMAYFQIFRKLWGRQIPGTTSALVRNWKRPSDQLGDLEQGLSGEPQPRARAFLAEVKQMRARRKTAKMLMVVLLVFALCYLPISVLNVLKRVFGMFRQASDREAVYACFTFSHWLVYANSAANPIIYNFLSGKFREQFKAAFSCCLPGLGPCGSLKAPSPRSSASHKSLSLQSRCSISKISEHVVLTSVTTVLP

Assay [2] concerns the target human orexin 1 receptor (Homo sapiens (Human), UniProt O43613). The assay is described as follows: Human orexin 1 receptor radioligand binding (competitive). To be noted: CHO cells stably expressing human orexin 1 receptor; 4 nM radioligand; averages of 2-20 runs; read-out: hOX1 Ki. How it is done:
as §1, §2, §3, §4

One may read the Ki as a measure of affinity in units of concentration, obtained from inhibition or displacement. For the molecule `Cc1ccc(-c2ncccn2)c(C(=O)N2C(C)C3CC(Oc4ccc(C(F)(F)F)cn4)C2C3)n1` (racemic) [Example 16, (R/S)-(6-methyl-3-(pyrimidin-2-yl)pyridin-2-yl)(3-methyl-6-((5-(trifluoromethyl)pyridin-2-yl)oxy)-2-azabicyclo[2.2.1]heptan-2-yl)methanone], the Ki in assay [1] came to 20 nM; in assay [2], 38 nM.

Turning to `Cc1ccc(-n2nccn2)c(C(=O)N2C(C)C3CC(Oc4ccc(C(F)(F)F)cn4)C2C3)n1` (single isomer, unassigned) [Example 3, (R/S)-(6-methyl-3-(2H-1,2,3-triazol-2-yl)pyridin-2-yl)(3-methyl-6-((5-(trifluoromethyl)pyridin-2-yl)oxy)-2-azabicyclo[2.2.1]heptan-2-yl)methanone], the Ki was determined as 21 nM in assay [1] and 20 nM in assay [2].

Take `Cc1ccc(-n2nccn2)c(C(=O)N2C(CC(C)C)C3CC(Oc4ccc(C(F)(F)F)cn4)C2C3)n1` (racemic) [Example 210, (R/S)-[2-isobutyl-5-[[5-(trifluoromethyl)-2-pyridyl]oxy]-3-azabicyclo[2.2.1]heptan-3-yl]-[6-methyl-3-(triazol-2-yl)-2-pyridyl]methanone]: the values for the Ki in assay [1] and in assay [2] were 76 nM and 73 nM, respectively.

For `CC1C2CC(Nc3cnc(C(F)(F)F)cn3)C(C2)N1C(=O)c1ccccc1-n1nccn1` (single isomer, unassigned) [Example 68B, (2-(2H-1,2,3-triazol-2-yl)phenyl)((1S*,3R*,4S*,6R*)-3-methyl-6-((5-(trifluoromethyl)pyrazin-2-yl)amino)-2-azabicyclo[2.2.1]heptan-2-yl)methanone], the Ki in assay [1] is 4 nM; in assay [2], 5 nM.

For `Cc1ccc(-c2ncccn2)c(C(=O)N2C(C)C3CC(Oc4ccc(C(F)(F)F)cn4)C2C3)n1` (single isomer, unassigned) [Example 16B, (6-methyl-3-(pyrimidin-2-yl)pyridin-2-yl)((1S*,3R*,4R*,6R*)-3-methyl-6-((5-(trifluoromethyl)pyridin-2-yl)oxy)-2-azabicyclo[2.2.1]heptan-2-yl)methanone], the Ki came to 7 nM in assay [1] and 6 nM in assay [2].

As for `Cc1ccc(-n2nccn2)c(C(=O)N2C(C)C3CC(Oc4ccc(C(F)(F)F)cn4)C2C3)n1` (single isomer, unassigned) [Example 3A, (6-methyl-3-(2H-1,2,3-triazol-2-yl)pyridin-2-yl)((1R*,3R*,4S*,6S*)-3-methyl-6-((5-(trifluoromethyl)pyridin-2-yl)oxy)-2-azabicyclo[2.2.1]heptan-2-yl)methanone], the results for the Ki in assay [1] and in assay [2] were 11 nM and 14 nM, respectively.

For `Cc1ccc(-n2nccn2)c(C(=O)N2[C@H](C)[C@H]3C[C@@H](Oc4cnc5ccccc5n4)[C@@H]2C3)n1` (relative stereo) [Example 183, (6-methyl-3-(2H-1,2,3-triazol-2-yl)pyridin-2-yl)((1S*,3R*,4R*,6R*)-3-methyl-6-(quinoxalin-2-yloxy)-2-azabicyclo[2.2.1]heptan-2-yl)methanone], the Ki in assay [1] and in assay [2] was 5 nM in each case.

`C[C@@H]1[C@H]2C[C@@H](Oc3ccc(C(F)(F)F)cn3)[C@H](C2)N1C(=O)c1ccccc1-c1ncccn1` (relative stereo) [Example 33, ((1S*,3R*,4R*,6R*)-3-methyl-6-((5-(trifluoromethyl)pyridin-2-yl)oxy)-2-azabicyclo[2.2.1]heptan-2-yl)(2-(pyrimidin-2-yl)phenyl)methanone]: the Ki in assay [1] came to 4 nM; in assay [2], 3 nM.

Take `Cc1cnc(C(=O)N2[C@H](C)[C@H]3C[C@@H](Oc4ccc(C(F)(F)F)cn4)[C@@H]2C3)c(-n2nccn2)c1` (relative stereo) [Example 24, (5-methyl-3-(2H-1,2,3-triazol-2-yl)pyridin-2-yl)((1S*,3R*,4R*,6R*)-3-methyl-6-((5-(trifluoromethyl)pyridin-2-yl)oxy)-2-azabicyclo[2.2.1]heptan-2-yl)methanone]: the results for the Ki in assay [1] and in assay [2] were 6 nM and 15 nM, respectively.

With `CC1C2CC(Oc3ccc(C(F)(F)F)cn3)C(C2)N1C(=O)c1cc(F)ccc1-c1ncccn1` (single isomer, unassigned) [Example 18A, (5-fluoro-2-(pyrimidin-2-yl)phenyl)((1R*,3S*,4S*,6S*)-3-methyl-6-((5-(trifluoromethyl)pyridin-2-yl)oxy)-2-azabicyclo[2.2.1]heptan-2-yl)methanone], the Ki in assay [1] is 142 nM; in assay [2], 167 nM.

Turning to `Cc1cnc(C(=O)N2[C@H](C)[C@H]3C[C@@H](Nc4ccc(C(F)(F)F)cn4)[C@@H]2C3)c(-n2nccn2)c1` (relative stereo) [Example 66, (5-methyl-3-(2H-1,2,3-triazol-2-yl)pyridin-2-yl)((1S*,3R*,4S*,6R*)-3-methyl-6-((5-(trifluoromethyl)pyridin-2-yl)amino)-2-azabicyclo[2.2.1]heptan-2-yl)methanone], the Ki in assay [1] came out at 7 nM; in assay [2] it was 5 nM.

On to `Cc1cnc(C(=O)N2[C@H](C)[C@H]3C[C@@H](Oc4cnc(C(F)(F)F)cn4)[C@@H]2C3)c(-n2nccn2)c1` (relative stereo) [Example 48, (5-methyl-3-(2H-1,2,3-triazol-2-yl)pyridin-2-yl)((1S*,3R*,4R*,6R*)-3-methyl-6-((5-(trifluoromethyl)pyrazin-2-yl)oxy)-2-azabicyclo[2.2.1]heptan-2-yl)methanone], for which the Ki in assay [1] turned out to be 29 nM; in assay [2], 55 nM.

Regarding `Cc1ccc(-n2nccn2)c(C(=O)N2C(C)C3CC(Nc4cnc(C(F)(F)F)cn4)C2C3)n1` (single isomer, unassigned) [Example 6A, (6-methyl-3-(2H-1,2,3-triazol-2-yl)pyridin-2-yl)((1R*,3R*,4R*,6S*)-3-methyl-6-((5-(trifluoromethyl)pyrazin-2-yl)amino)-2-azabicyclo[2.2.1]heptan-2-yl)methanone], in assay [1], the Ki amounted to 6300 nM.

Take `[2H]C([2H])([2H])[C@]1([2H])[C@H]2C[C@@H](Oc3ccc(C(F)(F)F)cn3)[C@H](C2)N1C(=O)c1ncc(C)cc1-n1nccn1` [Example 166, [(1R,2R,4S,5R)-2-deuterio-2-(trideuteriomethyl)-5-[[5-(trifluoromethyl)-2-pyridyl]oxy]-3-azabicyclo[2.2.1]heptan-3-yl]-[5-methyl-3-(triazol-2-yl)-2-pyridyl]methanone]: the Ki in assay [1] is 4 nM.

Take `CC1C2CC(Oc3ccc(C(F)(F)F)cn3)C(C2)N1C(=O)c1ccc(F)cc1-c1ncccn1` (single isomer, unassigned) [Example 17A, (4-fluoro-2-(pyrimidin-2-yl)phenyl)((1R*,3S*,4S*,6S*)-3-methyl-6-((5-(trifluoromethyl)pyridin-2-yl)oxy)-2-azabicyclo[2.2.1]heptan-2-yl)methanone]: the Ki in assay [1] amounted to 339 nM.
